Test results published in BindingDB's records for patent US9328099 (Merck Sharp & Dohme, 2016).

Protein sequences, listed by entry. Tags and fused reporters are not part of them. Lines headed by an entry give the natural chain unless they say otherwise; changes in a name come on top.
UniProt P23458: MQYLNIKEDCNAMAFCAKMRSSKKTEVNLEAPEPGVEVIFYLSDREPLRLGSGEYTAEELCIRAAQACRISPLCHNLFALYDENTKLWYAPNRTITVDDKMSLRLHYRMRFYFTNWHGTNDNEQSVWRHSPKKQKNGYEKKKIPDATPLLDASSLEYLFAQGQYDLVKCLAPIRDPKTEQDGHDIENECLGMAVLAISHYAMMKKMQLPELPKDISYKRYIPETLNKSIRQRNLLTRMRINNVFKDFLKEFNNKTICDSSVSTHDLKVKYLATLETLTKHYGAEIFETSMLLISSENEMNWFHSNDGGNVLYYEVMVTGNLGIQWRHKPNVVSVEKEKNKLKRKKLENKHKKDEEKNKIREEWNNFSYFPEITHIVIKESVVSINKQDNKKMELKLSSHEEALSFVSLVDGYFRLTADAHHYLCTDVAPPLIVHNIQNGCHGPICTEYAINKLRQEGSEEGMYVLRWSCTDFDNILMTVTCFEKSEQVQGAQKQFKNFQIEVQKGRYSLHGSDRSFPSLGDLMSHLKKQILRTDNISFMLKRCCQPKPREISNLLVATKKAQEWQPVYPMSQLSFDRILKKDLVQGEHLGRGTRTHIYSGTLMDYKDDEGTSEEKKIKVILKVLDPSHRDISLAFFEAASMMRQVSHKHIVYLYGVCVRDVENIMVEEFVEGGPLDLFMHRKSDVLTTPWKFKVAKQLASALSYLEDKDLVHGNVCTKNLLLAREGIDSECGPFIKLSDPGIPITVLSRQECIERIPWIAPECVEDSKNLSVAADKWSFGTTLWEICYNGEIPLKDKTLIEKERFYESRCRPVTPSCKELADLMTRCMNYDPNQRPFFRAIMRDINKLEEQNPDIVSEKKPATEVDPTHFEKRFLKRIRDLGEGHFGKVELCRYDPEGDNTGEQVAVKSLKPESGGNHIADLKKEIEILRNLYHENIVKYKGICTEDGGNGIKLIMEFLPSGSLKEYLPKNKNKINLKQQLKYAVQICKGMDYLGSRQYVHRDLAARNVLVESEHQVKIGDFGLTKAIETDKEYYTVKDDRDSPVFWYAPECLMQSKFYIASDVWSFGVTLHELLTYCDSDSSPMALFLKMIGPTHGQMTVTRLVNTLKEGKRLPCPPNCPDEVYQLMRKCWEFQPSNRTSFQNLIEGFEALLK

Target: Tyrosine-protein kinase JAK1 (Homo sapiens, UniProt P23458)
Test: HTRF Biochemical Assay
Settings: 25 °C

IC50: 1 nM
Compound: COC1(c2nc3nc(-c4noc(=O)[nH]4)nc(-c4cncc(Cl)c4)c3n2C[C@H]2CC[C@H](C)CC2)CCCCC1 [US9328099, 48-2]
